This assay concerns the target T1, CYP2C19 (Homo sapiens, UniProt P33261).
T1 construct: purchased Promega
Description: CyP450 enzyme assay (P450-Glo). The assay is classed as in vitro ADME. To be noted: recombinant human CYP enzyme, 0.001–100 μmol/L. Here is the method: The assay was carried out using P450-Glo Screening System (Promega). The system contained recombinant human CYP enzyme and P450 reductase (and cytochrome b5 for CYP2C9, 2C19, and 3A4), luminogenic substrates appropriate for each CYP enzyme, a NADPH regeneration system (containing NADP+), and luciferin detection reagent. Control membranes devoid of CYP activity were used as negative controls. Ketoconazole, troglitazone and sulfaphenazole were used as positive controls. These compounds and organic solvents acetonitrile, and DMSO were purchased from Sigma-Aldrich.
First, 12.5 μL of the 4X stock solution of test compounds or positive controls (appropriate for each enzyme) were added to the “treated” wells. For the “untreated” (the values from these wells represent total CYP activity) and “minus-P450 control” wells (the values from these wells represent the CYP-independent background luminescence of the assay), 12.5 μL of vehicle was added. […] Before reading, the plate was incubated at room temperature for 20 minutes to stabilize the luminescent signal. The luminescence was measured using an Infinite F200 plate reader (Tecan). […]

Chains of the proteins cited; added tags and fusions are not shown.
UniProt P33261, whole entry: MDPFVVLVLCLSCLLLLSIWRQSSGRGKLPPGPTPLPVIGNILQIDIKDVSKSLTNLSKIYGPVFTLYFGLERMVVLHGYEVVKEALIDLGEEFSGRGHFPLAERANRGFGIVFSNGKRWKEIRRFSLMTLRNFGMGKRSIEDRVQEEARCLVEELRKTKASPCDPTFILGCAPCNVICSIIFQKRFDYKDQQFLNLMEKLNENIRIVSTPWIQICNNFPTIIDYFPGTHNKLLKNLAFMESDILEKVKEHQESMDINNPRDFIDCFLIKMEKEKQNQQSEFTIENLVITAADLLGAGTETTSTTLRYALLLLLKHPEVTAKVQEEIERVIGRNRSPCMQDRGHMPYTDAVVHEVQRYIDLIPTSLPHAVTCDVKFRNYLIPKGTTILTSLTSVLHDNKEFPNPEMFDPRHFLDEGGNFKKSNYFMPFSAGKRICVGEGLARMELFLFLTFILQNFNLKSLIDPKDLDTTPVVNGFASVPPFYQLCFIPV

Molecules are shown by their SMILES.

In general, IC50 refers to the concentration that inhibits the measured activity by half. As to `Cc1c(C)c2c(c(C)c1O)CCC(C)(COc1ccc(CC3SC(=O)NC3=O)cc1)O2` (stereo not shown) [Troglitazone, troglitazone, reference compound], the IC50 is 3.42 µM.

The values above are taken from paper PMC9970268 (Cancer Research Communications, 2022).
